# Yeast mating assay 1: variants of the scFv Ab-14

Source: Engelhart et al. 2022 (doi:10.1038/s41597-022-01779-4), MIT Lincoln Laboratory and A-Alpha Bio; data file from the FLAb repository.

Antigen: PDVDLGDISGINAS, a 14-residue peptide of the SARS-CoV-2 spike HR2 region.

Parent: Ab-14, a human scFv built as VH, a 15-residue (Gly4Ser)3 linker, VL. Only the CDRs of the heavy chain vary.
VH: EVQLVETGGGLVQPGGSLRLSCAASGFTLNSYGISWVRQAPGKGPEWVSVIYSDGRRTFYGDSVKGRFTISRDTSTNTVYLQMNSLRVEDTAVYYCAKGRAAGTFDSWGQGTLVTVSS
VL: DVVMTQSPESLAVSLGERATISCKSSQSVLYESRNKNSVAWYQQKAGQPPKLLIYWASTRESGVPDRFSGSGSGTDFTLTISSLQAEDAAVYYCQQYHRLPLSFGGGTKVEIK

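Phage display of a naive human antibody library on the peptide gave the parent. Library AAYL49 holds single substitutions and randomly drawn double and triple substitutions in the CDRs. Affinity was read by AlphaSeq, a pooled yeast mating assay with surface-displayed partners. The frequency of each diploid, read from paired DNA barcodes, reflects how well the two displayed proteins bind. Each replicate has its own calibration line, from reference interactions of the BCL2 family. The assay was run in three technical replicates.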

Substitutions are numbered in sequence along the VH above, starting at 1 (not Kabat).
Scale: log10 of Kd in nM, estimated from mating counts; low values are strong binders.
A mean of the replicates is given; it leaves out those without a signal.
An entry "nd" has no value in the source: the pair was not observed among the diploids in any replicate. This suggests poor binding but is not conclusive.
Empty control strains, which show no peptide, gave a signal in 15% of pairings with library AAYL49; the median was 4.06 and 95% of these signals were weaker than 2.83. No background was subtracted.
In this assay the parent's reference entry averaged 0.65; its copy inside this library read 4.11 (one replicate of three).

| # | changes | mean, log10 nM | replicates with signal |
|---|---|---|---|
| 1 | T28V+G33E+A102L | 3.88 | 2 of 3 |
| 2 | I34A+A101F+A102K | nd | 0 of 3 |
| 3 | F27K+A101V | 0.69 | 3 of 3 |
| 4 | L29M+R56F+Y60I | nd | 0 of 3 |
| 5 | V50L+A101G+A102Y | nd | 0 of 3 |
| 6 | G26H+T28G+R57M | nd | 0 of 3 |
| 7 | G99H+A102G | nd | 0 of 3 |
| 8 | S35E+R100K+F105W | 1.98 | 3 of 3 |
| 9 | F27L+G55P | 5.41 | 3 of 3 |
| 10 | S35F+D54M+A102V | nd | 0 of 3 |
| 11 | G99K+A101C+A102N | 4.97 | 2 of 3 |
| 12 | A102P+S107I | 1.58 | 3 of 3 |
| 13 | S53R+A102W | 4.26 | 1 of 3 |
| 14 | I34D+D62N | nd | 0 of 3 |
| 15 | V50D+D54C+F105P | nd | 0 of 3 |
| 16 | T28A+G61Q+R100K | 0.41 | 3 of 3 |
| 17 | V50S+G55C+R57S | 4.58 | 2 of 3 |
| 18 | Y32I+S35H+S53A | 1.40 | 3 of 3 |
| 19 | L29Q+I34H+G103H | nd | 0 of 3 |
| 20 | N30S+Y32G+K65N | 5.46 | 1 of 3 |
| 21 | S53D+G55H+G99W | nd | 0 of 3 |
| 22 | V50F+Y52L+G99H | 5.28 | 1 of 3 |
| 23 | S35N+R100N+D106M | 3.75 | 3 of 3 |
| 24 | I51D+S63N | nd | 0 of 3 |
| 25 | Y60M+G103V+S107R | nd | 0 of 3 |
| 26 | V50P+G61W+K65T | 4.17 | 1 of 3 |
| 27 | S31N+S53F+R57I | nd | 0 of 3 |
| 28 | G26R+F59E | 1.85 | 3 of 3 |
| 29 | S31L+G33E+V50P | nd | 0 of 3 |
| 30 | G26S+I34C+S63A | nd | 0 of 3 |
| 31 | G61Y+S63T+A102E | nd | 0 of 3 |
| 32 | Y60Q+T104M | nd | 0 of 3 |
| 33 | T28P+S31G+G99F | 3.68 | 1 of 3 |
| 34 | Y52P+S63I+G103P | nd | 0 of 3 |
| 35 | T58A+R100Y+F105I | nd | 0 of 3 |
| 36 | Y52M+K65T+A102Q | nd | 0 of 3 |
| 37 | R56I+T58C+Y60R | 4.52 | 1 of 3 |
| 38 | Y32C+T58F | nd | 0 of 3 |
| 39 | F27E+T28G+F59M | 2.65 | 3 of 3 |
| 40 | Y60V+A101L+T104Q | 3.03 | 3 of 3 |
| 41 | T28S+V50D+F59Q | nd | 0 of 3 |
| 42 | Y32N+G61H | 2.73 | 3 of 3 |
| 43 | T28C+R56D+G103T | 2.35 | 3 of 3 |
| 44 | R56W+K65F+A101G | 5.36 | 1 of 3 |
| 45 | S35R+D62W+A101F | nd | 0 of 3 |
| 46 | F27L+R56A+G99M | nd | 0 of 3 |
| 47 | S31P+S53F+G61Y | 3.40 | 1 of 3 |
| 48 | S35V+G61F+A102K | nd | 0 of 3 |
| 49 | G33R+F59Q+A102Q | nd | 0 of 3 |
| 50 | T28E+L29R+F105E | nd | 0 of 3 |
| 51 | R100A+F105H+D106Y | nd | 0 of 3 |
| 52 | I51P+A102E+S107L | nd | 0 of 3 |
| 53 | T28F+I51N+G99F | 4.75 | 3 of 3 |
| 54 | G55L+G103A+S107E | 5.33 | 1 of 3 |
| 55 | N30E+T58G+A101D | 3.58 | 3 of 3 |
| 56 | S35T+I51C+R100L | nd | 0 of 3 |
| 57 | S63H+F105V+S107R | 2.74 | 3 of 3 |
| 58 | F27A+S53I+D54W | nd | 0 of 3 |
| 59 | D54H+V64C+D106T | nd | 0 of 3 |
| 60 | G26D+F27W | 4.20 | 1 of 3 |
| 61 | G61R+G99Y+S107M | nd | 0 of 3 |
| 62 | S35G+R56Q+S107K | nd | 0 of 3 |
| 63 | G26V+S35Y+K65P | nd | 0 of 3 |
| 64 | S31M+I34D+R100K | nd | 0 of 3 |
| 65 | G33E+S35T+A102D | nd | 0 of 3 |
| 66 | D62A+T104M+F105Q | nd | 0 of 3 |
| 67 | N30K+T58V+A102C | 2.66 | 3 of 3 |
| 68 | Y60G+G99H+F105R | nd | 0 of 3 |
| 69 | N30F+A102K+T104D | nd | 0 of 3 |
| 70 | Y32I+V50Y+F59Y | nd | 0 of 3 |
| 71 | S31W+F59G+R100N | 1.74 | 3 of 3 |
| 72 | L29W+N30I+K65N | nd | 0 of 3 |

Excerpt, the first 5 entries:

| changes | mean, log10 nM | replicates with signal |
|---|---|---|
| T28V+G33E+A102L | 3.88 | 2 of 3 |
| I34A+A101F+A102K | nd | 0 of 3 |
| F27K+A101V | 0.69 | 3 of 3 |
| L29M+R56F+Y60I | nd | 0 of 3 |
| V50L+A101G+A102Y | nd | 0 of 3 |